From paper PMC6628435, “Chemical Synthesis, Proper Folding, Nav Channel Selectivity Profile and Analgesic Properties of the Spider Peptide Phlotoxin 1” (Toxins, 2019) come the findings set out here.

By UniProt entry, the sequences of proteins in these tests, tags left out.
UniProt Q15858, whole entry: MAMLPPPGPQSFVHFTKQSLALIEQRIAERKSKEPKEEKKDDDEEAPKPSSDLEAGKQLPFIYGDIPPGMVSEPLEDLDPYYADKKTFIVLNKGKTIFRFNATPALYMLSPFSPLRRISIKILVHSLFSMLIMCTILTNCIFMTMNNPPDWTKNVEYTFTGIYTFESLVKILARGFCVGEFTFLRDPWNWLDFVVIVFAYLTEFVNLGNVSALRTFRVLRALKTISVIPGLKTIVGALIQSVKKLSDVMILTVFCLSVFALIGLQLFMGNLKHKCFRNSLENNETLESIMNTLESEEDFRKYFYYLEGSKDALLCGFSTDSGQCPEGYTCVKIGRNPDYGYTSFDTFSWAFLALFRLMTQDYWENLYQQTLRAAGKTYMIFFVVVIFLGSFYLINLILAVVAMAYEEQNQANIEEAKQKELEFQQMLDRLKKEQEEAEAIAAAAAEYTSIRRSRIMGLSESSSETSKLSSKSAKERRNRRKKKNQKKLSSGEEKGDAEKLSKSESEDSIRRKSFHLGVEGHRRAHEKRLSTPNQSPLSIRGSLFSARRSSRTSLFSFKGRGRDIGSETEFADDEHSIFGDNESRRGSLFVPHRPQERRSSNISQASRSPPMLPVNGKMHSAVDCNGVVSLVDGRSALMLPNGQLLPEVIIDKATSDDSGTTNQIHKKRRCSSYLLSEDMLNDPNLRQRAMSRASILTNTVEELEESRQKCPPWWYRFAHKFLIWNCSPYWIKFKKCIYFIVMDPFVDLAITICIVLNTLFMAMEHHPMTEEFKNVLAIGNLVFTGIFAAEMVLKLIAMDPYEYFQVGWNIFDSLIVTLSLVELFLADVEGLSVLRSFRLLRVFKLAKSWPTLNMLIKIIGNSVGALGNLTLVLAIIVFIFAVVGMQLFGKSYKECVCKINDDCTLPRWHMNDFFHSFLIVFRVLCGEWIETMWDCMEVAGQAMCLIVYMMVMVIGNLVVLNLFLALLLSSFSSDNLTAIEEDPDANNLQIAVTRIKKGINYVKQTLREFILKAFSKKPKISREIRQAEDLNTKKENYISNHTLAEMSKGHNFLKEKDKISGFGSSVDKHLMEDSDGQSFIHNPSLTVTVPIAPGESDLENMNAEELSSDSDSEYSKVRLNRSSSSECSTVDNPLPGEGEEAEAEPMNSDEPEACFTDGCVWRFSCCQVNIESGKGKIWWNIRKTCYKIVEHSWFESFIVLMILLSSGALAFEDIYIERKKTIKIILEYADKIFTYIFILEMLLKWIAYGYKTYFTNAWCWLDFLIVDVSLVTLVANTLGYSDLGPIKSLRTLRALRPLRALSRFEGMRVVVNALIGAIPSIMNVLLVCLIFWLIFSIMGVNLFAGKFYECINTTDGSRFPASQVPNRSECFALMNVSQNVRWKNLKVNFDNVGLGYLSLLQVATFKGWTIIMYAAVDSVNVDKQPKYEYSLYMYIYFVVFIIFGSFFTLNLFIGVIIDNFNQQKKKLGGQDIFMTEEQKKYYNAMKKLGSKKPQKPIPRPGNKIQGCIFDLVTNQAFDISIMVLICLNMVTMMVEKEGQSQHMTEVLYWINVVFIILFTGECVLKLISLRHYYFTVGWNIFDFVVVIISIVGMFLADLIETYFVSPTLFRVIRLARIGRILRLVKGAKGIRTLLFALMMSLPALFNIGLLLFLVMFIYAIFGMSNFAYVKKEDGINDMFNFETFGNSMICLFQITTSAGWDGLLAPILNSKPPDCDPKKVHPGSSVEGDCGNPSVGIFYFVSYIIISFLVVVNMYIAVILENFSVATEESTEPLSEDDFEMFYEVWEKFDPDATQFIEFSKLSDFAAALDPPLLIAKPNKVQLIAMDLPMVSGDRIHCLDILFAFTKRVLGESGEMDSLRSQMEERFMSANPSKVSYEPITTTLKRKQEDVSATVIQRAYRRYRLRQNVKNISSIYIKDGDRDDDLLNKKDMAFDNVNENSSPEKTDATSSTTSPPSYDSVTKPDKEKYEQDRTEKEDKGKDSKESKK

SMILES strings stand for the structures.

The assay addresses T1, human Nav1.7 (Homo sapiens, UniProt Q15858).
T1 construct: expressed in transfected cells
As to the kind of experiment: Automated patch-clamp (Nanion SyncroPatch 384PE) on CHO cells expressing human Nav1.7. The assay is classed as cell-based. From the text:
We used a CHO mammalian cell line expressing the human Nav1.7 instead of Xenopus oocytes for the pharmacological evaluation. […] 100-ms pulses from −100 mV to −10 mV were applied at a frequency of 0.2 Hz and various concentrations of PhlTx1 were applied to the cells. […] Using a manual patch clamp, which is better suited to investigate current recovery from block than an automated patch clamp that requires several washing steps, we investigated the reversibility properties of a PhlTx1 block.
CHO cells stably expressing the human Nav1.7 cells were cultured in Dulbecco’s Modified Eagle’s Medium (DMEM) supplemented with 10% fetal calf serum, 1 mM pyruvic acid, 4 mM glutamine, 10 IU/mL penicillin and 10 μg/mL streptomycin (Gibco, Grand Island, NY, USA), and incubated at 37 °C in a 5% CO2 atmosphere. For automated patch-clamp recordings, cells were detached with trypsin and floating single cells were diluted (~300,000 cells/mL) in medium contained (in mM): 4 KCl, 140 NaCl, 5 Glucose, 10 HEPES (pH 7.4, osmolarity 290 mOsm).
Chips with single-hole and high-resistance (~6–7 MΩ) were used for CHO cell recordings. […] Percentages of current inhibitions were measured at the end of a 12- to 15-min application time (12-min for fast blocking toxins; 15-min for slow blocking ones). […]
On the technique in general: Patch clamp records ionic current or voltage across a cell membrane.

`CC(C)C[C@H](NC(=O)[C@H](CCCCN)NC(=O)[C@H](Cc1c[nH]c2ccccc12)NC(=O)[C@H](CCCCN)NC(=O)[C@@H]1CSSC[C@@H]2NC(=O)[C@H](CCC(=O)O)NC(=O)[C@H](CC(N)=O)NC(=O)[C@H](CCCCN)NC(=O)CNC(=O)[C@@H]3CCCN3C(=O)[C@H]([C@@H](C)O)NC(=O)[C@@H]3CSSC[C@H](NC(=O)[C@H](C(C)C)NC(=O)[C@H](CCCNC(=N)N)NC(=O)[C@H](CC(N)=O)NC(=O)[C@@H]4CCCN4C(=O)[C@H](CSSC[C@H](NC(=O)[C@H](C)N)C(=O)N[C@@H](CCCCN)C(=O)NCC(=O)N[C@@H](C(C)C)C(=O)N[C@@H](Cc4ccccc4)C(=O)N[C@@H](CC(=O)O)C(=O)N[C@@H](C)C(=O)N3)NC2=O)C(=O)N[C@@H](CO)C(=O)N[C@@H](CC(=O)O)C(=O)N[C@@H](CCCCN)C(=O)N[C@@H](Cc2cnc[nH]2)C(=O)N[C@@H](CCCCN)C(=O)N[C@@H](Cc2c[nH]c3ccccc23)C(=O)N1)C(=O)O` [HwTx-I]: the half-inhibitory concentration (IC50) (usually the point on the concentration scale where inhibition reaches its midpoint) stood at 25.1 nM.
